1 molecule from PMC5814206 (2017) can be followed below.

“And” between values parts separate entries of the source, which are not always exact repeats. Equal values may be shown once.

For the experiment, the target named is EGFR (Homo sapiens, UniProt P00533). Description: flow.

B1: nimotuzumab (antibody, V domains shown)
VH: QVQLQQSGAEVKKPGSSVKVSCKASGYTFTNYYIYWVRQAPGQGLEWIGGINPTSGGSNFNEKFKTRVTITADESSTTAYMELSSLRSEDTAFYFCTRQGLWFDSDGRGFDFWGQGTTVTVSS
VL: DIQMTQSPSSLSASVGDRVTITCRSSQNIVHSNGNTYLDWYQQTPGKAPKLLIYKVSNRFSGVPSRFSGSGSGTDFTFTISSLQPEDIATYYCFQYSHVPWTFGQGTKLQIT
Consider B1, for which the Kd was 9.7 nM and 4.5 nM and 10.4 nM and 9.8 nM.

What is called Kd is the free concentration of one partner at which half of the binding sites on the other are occupied at equilibrium, for simple one-to-one binding. A lower Kd goes with a tighter complex.
